Laboratory results reported in US20140031289A1 (Korea Institute of Science and Technology, priority 2012, published 2014).

Assay: In vivo release behavior of human growth hormone from the polymer hydrogel
Conditions: SD rat, solution containing human growth hormone only injected
Method: The anionic human growth hormone and the cationic protamine sulfate were mixed in various ratios (protamine:human growth hormone=1:1 or 3:1) to prepare complexes. The phosphazene-based polymers of Examples 7 and 8 each were dissolved in phosphate buffered saline (pH 7.4) to make a solution with the concentration of 10 wt %, to which was added the above prepared complex. For the in vivo release test, 200 μg/kg of hydrogel containing human growth hormone in the concentration of 1.1 mg/kg was injected to test animal rats (OrientalBio, SD rat, male of 4-week old). At the predetermined time, 0.3 nm of blood was taken from the tail of rat and centrifuged. The amount of human growth hormone contained in the supernatant was measured by using an ELISA kit (BioCheck, Inc., USA).
The ratio of protamine sulfate and human growth hormone in the formation of the complex was fixed to protamine:human growth hormone=1:1 or 3:1, and was represented in the format such as Example-1 (1:1) or Example-2 (3:1). The release behavior of human growth hormone in the phosphazene-based polymer hydrogel to which protamine was combined in various ratios was measured as above and is represented in FIG. 6. […] On the contrary, when the hormone was combined with the phosphazene-based polymer hydrogel, sustained release as shown in the figure could be observed. […]

Substance: human growth hormone
- time within which sharp decrease of blood concentration was observed: ≤ 24 h
